# The entries are a selection whose mix differs from that of the whole data set. Calls of active or inactive are those of the source.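 Rule for the calls: active = inhibition above a per-plate cutoff, the mean of that plate's test compounds plus 3 SD (cut at about 27% in these data); inactive = the rest.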
# Protein sequences, listed by entry. Tags and fused reporters are not part of them.
# UniProt P08912, whole entry, looked up: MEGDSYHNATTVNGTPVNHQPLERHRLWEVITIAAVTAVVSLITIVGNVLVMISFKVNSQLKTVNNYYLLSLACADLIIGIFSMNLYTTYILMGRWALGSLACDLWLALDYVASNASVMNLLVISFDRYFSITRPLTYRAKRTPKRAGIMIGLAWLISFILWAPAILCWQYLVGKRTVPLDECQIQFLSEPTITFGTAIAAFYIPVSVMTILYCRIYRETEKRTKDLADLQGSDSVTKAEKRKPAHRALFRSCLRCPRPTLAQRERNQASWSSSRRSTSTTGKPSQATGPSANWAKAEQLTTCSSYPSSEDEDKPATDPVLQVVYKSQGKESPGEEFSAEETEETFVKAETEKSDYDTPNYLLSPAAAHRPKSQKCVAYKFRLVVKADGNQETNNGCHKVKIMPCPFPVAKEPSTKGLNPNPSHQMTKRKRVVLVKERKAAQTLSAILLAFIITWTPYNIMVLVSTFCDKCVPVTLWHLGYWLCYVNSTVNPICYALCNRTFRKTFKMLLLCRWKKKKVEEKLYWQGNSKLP
# Molecular target: Muscarinic acetylcholine receptor M5 (Homo sapiens) (UniProt P08912)
# Assay: human M5 muscarinic receptor antagonists, primary screen, CHO cells, Fluo-8 calcium fluorescence (AID 624040);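 note: 0% = acetylcholine EC80 with DMSO and 100% = DMSO without agonist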
# Details: CHO-hM5 cells, ACh EC80, at 3 µM, hits give high values
row,SMILES,inhibition
1,Cc1cc(=O)[nH]c(N[N+](=O)[O-])n1,inactive: 18.8%
2,O=P1(N(CCCl)CCCl)Nc2ccccc2N1,inactive: 17.6%
3,O=P1(N(CCCl)CCCl)OCCCN1CCCl (stereo not given),inactive: 4.03%
4,COc1ccc2nc(NP(=O)(c3ccccc3)c3ccccc3)sc2c1,inactive: 6.21%
5,COc1cc(I)ccc1[As](=O)(O)O,inactive: -11.4%
6,O=[N+]([O-])c1cc(Oc2ccc([N+](=O)[O-])cc2C(F)(F)F)cc([N+](=O)[O-])c1,inactive: 9.69%
7,COc1ccc(N/C(=N/P(=O)(N2CCOCC2)N2CCOCC2)N2CCOCC2)cc1,inactive: -2.83%
8,C[As](=O)(O)c1cccc(C(=O)O)c1,inactive: 2.8%
9,O=[As](O)(c1ccc(O)cc1)c1ccccc1O,inactive: -3.74%
10,O=[N+]([O-])c1ccc(-c2cc([N+](=O)[O-])c(O)c([N+](=O)[O-])c2)cc1,inactive: -1.42%
11,Cc1ccc(OP(=O)(Nc2ccc([N+](=O)[O-])cn2)Oc2ccc(C)cc2)cc1,inactive: 7.59%
12,[N-]=[N+]=NC1CCCCC1NC(=O)c1cc([N+](=O)[O-])cc([N+](=O)[O-])c1 (stereo not given),inactive: 0.29%
13,CC(Cc1ccc(O)cc1)NCC(O)c1cc(O)cc(O)c1 (stereo not given),inactive: 3.58%
14,Cc1ccc2nc3c(c(C)c2c1)CC(C(Cl)Cl)S3 (stereo not given),inactive: -13.7%
15,ClCCSc1nnc(-c2cccnc2)o1,inactive: -4.85%
16,CC(C)c1ccc(OP(=O)(Nc2ccccn2)Oc2ccccc2F)cc1 (stereo not given),inactive: 6.54%
17,COC(=O)C1(C)COP(=O)(N2CCCCCC2)OC1 (stereo not given),inactive: 3.35%
18,O=C(OC1CN2CCC1CC2)c1cccc2[nH]cnc12 (stereo not given),inactive: -2.53%
19,CCN(CC)C(=S)SC(NC=O)C(Cl)(Cl)Cl (stereo not given),inactive: 6.56%
20,CC(C)NC(=O)NP(=O)(Oc1ccccc1)Oc1ccccc1,inactive: 4.91%
21,O=[N+]([O-])c1cc([N+](=O)[O-])c(-c2ccn[nH]2)s1,inactive: 9.21%
22,O=C(O)C(O)c1ccc(N(CCCl)CCCl)cc1 (stereo not given),inactive: 4.6%
23,CCOC(=O)Nc1ccc([As](=O)(O)O)c(O)c1,inactive: -6.61%
24,CC1CCNP(=O)(N(CCCl)CCCl)O1 (stereo not given),inactive: 14.4%
25,C/C=C1/CC(C)C(C)(O)C(=O)OCC2CCN3CCC(OC1=O)C23 (stereo not given),active: 47.9%

row,SMILES,inhibition
1,COP(=O)(OC)N1CC1c1ccccc1 (stereo not given),inactive: -2.25%
2,Cc1cc(SC(NC(=O)c2ccccc2)C(Cl)(Cl)Cl)nc(C(C)C)n1 (stereo not given),inactive: 3.8%
3,CCOC(=O)Nc1cccc([As](=O)(O)O)c1,inactive: 8.93%
4,Cc1cc(SC(NC=O)C(Cl)(Cl)Cl)ncn1 (stereo not given),inactive: -9.52%
5,O=P(Nc1ccccn1)(c1cccc2ccccc12)c1cccc2ccccc12,inactive: -10.2%
6,O=[N+]([O-])c1ccc(Nc2ccc(Oc3ccc([N+](=O)[O-])cc3[N+](=O)[O-])cc2)c([N+](=O)[O-])c1,inactive: 6.35%
7,COP1(=S)c2c(C)nn(CCC#N)c2N=C(c2ccc(F)cc2)N1C (stereo not given),inactive: 1.14%
8,COC(=O)C1(C)COP(=O)(N2CCCC2)OC1 (stereo not given),inactive: 7.27%
9,O=C(O)C(=O)c1ccc(N(CCCl)CCCl)cc1,inactive: -1.97%
10,O=C(Nc1ccncc1[N+](=O)[O-])c1ccc([N+](=O)[O-])cc1[N+](=O)[O-],inactive: 1.07%
11,O=C(OC1CN2CCC1CC2)c1cccc([N+](=O)[O-])c1 (stereo not given),inactive: 8.94%
12,CSc1ccc(Nc2c([N+](=O)[O-])cc([N+](=O)[O-])cc2[N+](=O)[O-])cc1,inactive: 21.2%
13,CCOC(=O)c1ccc(NC(=O)C(C)(CCl)SC)cc1 (stereo not given),inactive: 5.19%
14,CCC(C)N(CC(C)C)C(=S)SC(NC(C)=O)C(Cl)(Cl)Cl (stereo not given),inactive: 2.6%
15,COc1ccc(C2=NCC(CBr)S2)cc1 (stereo not given),inactive: 7.61%
16,Cc1ccc(NP(=O)(Oc2ccccc2)Oc2ccccc2)nc1,inactive: 6.95%
17,O=[N+]([O-])c1cc([N+](=O)[O-])c(CCNc2ccccc2)c([N+](=O)[O-])c1,inactive: 2.06%
18,CCc1nc2c(n1)c1c(non1O)c1c2no[n+]1[O-],inactive: 5.02%
19,CC(=O)N1C2C3N(C(C)=O)C1C1N(C(C)=O)C(C(N1C(C)=O)N3C(C)=O)N2C(C)=O,inactive: -5.25%
20,O=[N+]([O-])c1cccc2n[nH]nc12,inactive: 1.43%
21,CCN(/C(=N/P(=O)(N1CCOCC1)N1CCOCC1)N1CCOCC1)c1ccc(OC)cc1,inactive: 4.34%
22,Nc1ccc([As](=O)(O)c2ccc(N)cc2)cc1,inactive: 6.5%
23,C[N+]1=C2C=CC=CC=C2SC12C([N+](=O)[O-])=CC([N+](=O)[O-])=C[C-]2[N+](=O)[O-] (stereo not given),active: 42.6%
24,c1cc(-c2nn[nH]n2)ccc1-c1nn[nH]n1,inactive: -10.1%
25,CC1CCN(C(=O)Oc2c(Cl)cc(Cl)c3cccnc23)CC1,inactive: -5.68%

# Source: PubChem BioAssay AID624040 (The Scripps Research Institute Molecular Screening Center, 2012)
